According to patent publication US6790644B2, “1,3-dicarbonyl-dioxygenase—a new c-c-bond cleaving enzyme” (Biocatalytics, Inc., priority 2001, dated 2004):

System: CC(=O)CC(C)=O
Assay: purified protein, by the assay type
Settings: pH 7.5; 25.0 °C

With “1,3-dicarbonyl-dioxygenase (Acinetobacter johnsonii)” the Km was 7.4 ± 1.9 µM.
